{
  "source": "patent EP4722207A1",
  "about": "“OXOISOINDOLINYL-SUBSTITUTED TETRAHYDROPYRIMIDINEDIONE DERIVATIVE AND USE THEREOF” (Gluetacs Therapeutics (Shanghai) Co., Ltd., priority 2023, dated 2024)",
  "test_system": "MGC803",
  "assay": "Cell viability assay (CellTiter-Meiluncell Luminescent), tumor cell proliferation, MGC803",
  "settings": "Homo sapiens, MGC-803, 96 h, read-out: inhibitory activity (IC50, nM) against tumor cells proliferation, MGC803",
  "data": [
    {"smiles": "Nc1cccc2c1CN(C1CCC(=O)NC1=O)C2=O", "note": "(stereo not shown) [lenalidomide, reference compound]", "values": [
      {"measurement": "IC50", "value": "> 10000", "unit": "nM"}
    ]}
  ]
}
